BindingDB's records for PubMed 8114680 (University of Pennsylvania, 1994)

The chains behind the UniProt entries cited, without tags or fusion partners. Where a name states a change or a piece, a line headed by the entry shows the natural chain unless it says otherwise.
UniProt P35372, whole entry: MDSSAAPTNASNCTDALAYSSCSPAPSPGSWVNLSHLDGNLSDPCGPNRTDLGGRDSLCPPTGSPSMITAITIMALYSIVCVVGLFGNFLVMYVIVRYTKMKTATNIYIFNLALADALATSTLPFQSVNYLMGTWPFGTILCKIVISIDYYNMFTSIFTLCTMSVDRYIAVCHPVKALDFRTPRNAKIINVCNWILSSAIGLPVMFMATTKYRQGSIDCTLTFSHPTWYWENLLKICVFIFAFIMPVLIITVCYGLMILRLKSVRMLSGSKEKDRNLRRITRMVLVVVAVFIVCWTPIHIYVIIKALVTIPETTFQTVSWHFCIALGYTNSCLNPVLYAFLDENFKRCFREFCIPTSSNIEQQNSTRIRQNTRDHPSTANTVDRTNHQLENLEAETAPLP
UniProt P41145: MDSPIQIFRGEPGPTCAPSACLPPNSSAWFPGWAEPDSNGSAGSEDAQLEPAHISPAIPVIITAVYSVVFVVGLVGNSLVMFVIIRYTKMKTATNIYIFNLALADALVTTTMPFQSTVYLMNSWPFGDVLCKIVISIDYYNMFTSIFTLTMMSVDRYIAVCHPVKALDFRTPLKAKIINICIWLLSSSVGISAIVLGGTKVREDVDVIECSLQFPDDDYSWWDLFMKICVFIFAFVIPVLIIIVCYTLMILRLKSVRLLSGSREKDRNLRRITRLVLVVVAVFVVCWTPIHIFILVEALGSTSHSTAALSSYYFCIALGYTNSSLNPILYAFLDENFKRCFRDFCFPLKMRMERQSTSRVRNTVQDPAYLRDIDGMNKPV

What was measured:
Mu-type opioid receptor = Mu-type opioid receptor (Homo sapiens, UniProt P35372)
[1] = biological target: Kappa-type opioid receptor (Homo sapiens, UniProt P41145)

Compound | Ki (Mu-type opioid receptor) | Ki [1]
CC(C)C[C@@H](NC(=O)[C@H](Cc1ccccc1)NC(=O)CNC(=O)[C@@H](C)NC(=O)[C@@H](N)Cc1ccc(O)cc1)C(=O)O [[D-Ala2-D-Leu5]enkephalin] | 16 nM | 1000 nM
CC(C)[C@H](NC(=O)[C@H](CCC(=O)O)NC(=O)[C@H](Cc1ccccc1)NC(=O)[C@@H](C)NC(=O)[C@@H](N)Cc1ccc(O)cc1)C(=O)N[C@H](C(=O)NCC(N)=O)C(C)C [Tyr-D-Ala-Phe-Glu-Val-Val-GlyNH2] | 1000 nM | 
Oc1ccc2c3c1OC1c4[nH]c5ccccc5c4CC4(O)[C@H](C2)N(CC2CC2)CCC314 (some centres undefined) [NALTRINDOLE] |  | 66 nM
